Bioassay records: PubChem BioAssay, ICCB-Longwood Screening Facility, Harvard Medical School
GIV Gai3 FP – inhibitors of GIV GBA-motif binding to rat Galpha-i3; P08753; Galpha-i3/FITC-GIV peptide fluorescence polarization, 90 min; active compounds read low; scaled: aluminum fluoride 0%, vehicle 100%; percent of control (FP), % (concentration not given with the values); 210,000 compounds, 0.42% hits; AID 1224905;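 active means replicate mean at 85% of control or lower, very high polarization wells dropped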;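 further: wells of about 15 µL received 100 nL stock; the first replicate is given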
HCMV NEC inh – cytomegalovirus nuclear egress complex inhibition; actives 0.15% (n = 190,000); inhibition, % (test concentration not listed); HTRF UL50-UL53 interaction, normalized percent inhibition; AID 1918969; in the data active means inhibition above about 27%, passing the limit was not always enough
GIV-Gai FP conf – confirmation of inhibitors of GIV binding to rat Galpha-i3 | AID 1259350 | FITC-GIV peptide binding to Galphai3, fluorescence polarization; active compounds read low | actives 38% (n = 580) | fluorescence polarization, mP at 100 µM | shares compounds with GIV Gai3 FP;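 active means inhibition score of 15 or more, meaning 100 minus mean polarization as percent of control over three replicates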;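 further: lower mP means peptide displaced from Galphai3 so more inhibition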
GIV Gai AS conf – GIV-Galpha-i3 inhibition, AlphaScreen confirmation; AlphaScreen Galphai3-GIV binding, purified proteins, 90 min; active compounds read low; AlphaScreen counts at 100 µM; shares compounds with GIV Gai3 FP; actives 39% (n = 580); AID 1259351;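 active means inhibition score at or above a set limit, where the score is 100 minus the three-replicate mean percent of control signal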
* hit, by the source's call; . = no result given. Shown are actives, neighbours in structure and some others; about 0.43% of the full set was active somewhere.

SMILES | GIV Gai3 FP | HCMV NEC inh | others
Cc1cc(C)cc(NC(=O)c2cc(S(=O)(=O)NC3CCCCC3)ccc2F)c1 | 114 | .
CCOC(=O)/C(C#N)=C\c1ccc(N2CCOCC2)cc1 | -45* | -50
CCOC(=O)/C(C#N)=C/c1ccccc1 | 103 | -76
CCN(Cc1ccccc1)c1ncc(NS(=O)(=O)c2ccc(Br)cc2)cc1C(=O)O | 145 | -49
COc1ccc(-c2cc(C(=O)N3CCN(S(=O)(=O)c4ccc(F)c(C)c4)CC3)[nH]n2)cc1 | 106 | -5
COC(=O)c1ccc2c(c1)N(Cc1ccccc1)C(=O)CS2 | 97 | .
Cc1ccccc1S(=O)(=O)N1CCc2c([nH]c3ccccc23)C1c1ccc(Cl)cc1 (configuration not stated) | 104 | -29
CCCN1CC=C2C(C#N)=C(N)C(C#N)(C#N)C(c3ccc(F)cc3F)C2C1 (configuration not stated) | 44* | -40
CC(=O)N1CC=C2C(C#N)=C(N)C(C#N)(C#N)[C@H](c3ccc(F)cc3F)[C@H]2C1 | . | -36
N#Cc1c(=O)n(O)c2ccccc2[n+]1[O-] | -33* | -132
O=c1c(-c2ccc(Oc3ccccc3)cc2)[n+]([O-])c2ccccc2n1O | 116 | -64
CC(C)c1ccc(Nc2nn3c(=O)c4ccccc4nc3s2)cc1 | 98 | 38*
COc1ccc(Nc2nn3c(=O)c4ccccc4nc3s2)cc1 | . | -9
CCCN1C(=O)c2ccccc2Sc2cc(NC(=O)CSc3nccc(C)n3)ccc21 | 109 | .
CCn1ccc2cc(S(=O)(=O)N3CCCC(C(=O)N4CCc5ccccc5C4)C3)ccc21 (configuration not stated) | 104 | -16
C=CC1=C(C(=O)O)N2C(=O)C(NC(=O)C(=NOCC(=O)O)c3csc(N)n3)C2SC1 (configuration not stated) | . | 95*
C=CC1=C(C(=O)O)N2C(=O)[C@H](NC(=O)C(=NO)c3csc(N)n3)[C@H]2SC1 | . | -23
N#CCc1c(C#N)c(N)nc(N2CCN(S(=O)(=O)c3ccccc3)CC2)c1C#N | . | 22
N#CCc1c(C#N)c(N)nc(N2CCc3ccccc32)c1C#N | . | 35*
CC(=Nc1cccc(Br)c1)c1sc2ccccc2c1O | 56* | -32
CC(=Nc1cccc(O)c1)c1sc2ccccc2c1O | 175 | -66
Cc1cccc(-c2cnc(Nc3cccc(C(=O)NCCC(C)C)c3)nc2)c1 | 104 | .
Cc1cccc(NC(=O)c2sc3nc(-c4cccs4)cc(C(F)(F)F)c3c2N)n1 | 114 | .
Nc1c(C(=O)Nc2ccccn2)sc2nc(-c3cccs3)cc(C(F)(F)F)c12 | 43* | . | GIV-Gai FP conf=54;GIV Gai AS conf=56627
CCOc1cc(-c2noc(-c3ccccc3)n2)ccc1OCC(=O)Nc1nccs1 | 105 | 0
(further entries)
SMILES | GIV Gai3 FP | HCMV NEC inh | others
CC(C)NC(=O)CCn1cnc2onc(-c3cccc(F)c3)c2c1=O | 101 | 1
COC(=O)CCn1cnc2onc(-c3cc(F)cc(F)c3)c2c1=O | 71* | -37 | GIV-Gai FP conf=80;GIV Gai AS conf=36007
Cc1oc2c(CN3CCCCC3)c(O)ccc2c(=O)c1Oc1ccc(Cl)cc1 | . | 8
CCN1C(C(=O)c2ccccc2)=C(NC(=O)c2ccccc2)c2ccccc2S1(=O)=O | 55* | -4 | GIV-Gai FP conf=20*;GIV Gai AS conf=46797
CCCCCN1C(C(=O)c2ccccc2)=C(NC(=O)c2ccc(C)cc2)c2ccccc2S1(=O)=O | 106 | -7
CN1C(=O)Cc2ccccc21 | 101 | -3
CN1C(=O)Cc2ccccc2C1=O | 80* | 67* | GIV-Gai FP conf=59*;GIV Gai AS conf=17985*
O=C(Nc1cc(-c2nc3ccccc3o2)ccc1Cl)c1ccc(Br)o1 | 69* | -55 | GIV-Gai FP conf=76;GIV Gai AS conf=31293
Cc1cc(C)c2oc(-c3cccc(NC(=O)c4ccco4)c3)nc2c1 | 113 | 3
O=C(Nc1ccc(-c2nc3ccccc3o2)cc1)c1ccc(Br)o1 | 108 | -23
Cc1cc(C)c2oc(-c3cccc(NC(=O)c4ccc(Br)o4)c3)nc2c1 | 90 | -17 | GIV-Gai FP conf=76;GIV Gai AS conf=24189
COC(=O)c1cc2ccsc2n1CC(=O)NCc1ccc(F)cc1 | 104 | 7
COC(=O)c1c(N)c(C#N)c2n1CCCC2 | 102 | -24
COC(=O)c1c(N)c(C#N)c2n1CCC2 | 80* | . | GIV-Gai FP conf=49*;GIV Gai AS conf=20250*
COCCCNC(=O)c1ccc2c(c1)[nH]c(=S)n1c3ccccc3nc21 | 116 | .
N#CCn1ccccc1=O | 101 | -40
CCOc1cccc(C2CC(=O)Nc3c2cnn3-c2ccc3nnc(C)n3n2)c1 (configuration not stated) | 98 | .
CC1=C(C(=O)OC(C)C)C(c2ccc(C(C)C)cc2)C(C#N)=C(N)S1 (configuration not stated) | . | -8

A draw from above in order of length of the SMILES, low to high:
SMILES | GIV Gai3 FP | HCMV NEC inh | others
COC(=O)c1cc2ccsc2n1CC(=O)NCc1ccc(F)cc1 | 104 | 7
O=C(Nc1cc(-c2nc3ccccc3o2)ccc1Cl)c1ccc(Br)o1 | 69* | -55 | GIV-Gai FP conf=76;GIV Gai AS conf=31293
Cc1cc(C)c2oc(-c3cccc(NC(=O)c4ccc(Br)o4)c3)nc2c1 | 90 | -17 | GIV-Gai FP conf=76;GIV Gai AS conf=24189
CCN1C(C(=O)c2ccccc2)=C(NC(=O)c2ccccc2)c2ccccc2S1(=O)=O | 55* | -4 | GIV-Gai FP conf=20*;GIV Gai AS conf=46797
CCCCCN1C(C(=O)c2ccccc2)=C(NC(=O)c2ccc(C)cc2)c2ccccc2S1(=O)=O | 106 | -7
